Assay results reported in ChEMBL document CHEMBL3393004, “Insights on the role of boron containing moieties in the design of new potent and efficient agonists targeting the β2 adrenoceptor” (Bioorg Med Chem Lett, 2015).

Sequences of proteins named here, by UniProt entry; tags and fusion partners are left off.
UniProt Q8K4Z4, whole entry: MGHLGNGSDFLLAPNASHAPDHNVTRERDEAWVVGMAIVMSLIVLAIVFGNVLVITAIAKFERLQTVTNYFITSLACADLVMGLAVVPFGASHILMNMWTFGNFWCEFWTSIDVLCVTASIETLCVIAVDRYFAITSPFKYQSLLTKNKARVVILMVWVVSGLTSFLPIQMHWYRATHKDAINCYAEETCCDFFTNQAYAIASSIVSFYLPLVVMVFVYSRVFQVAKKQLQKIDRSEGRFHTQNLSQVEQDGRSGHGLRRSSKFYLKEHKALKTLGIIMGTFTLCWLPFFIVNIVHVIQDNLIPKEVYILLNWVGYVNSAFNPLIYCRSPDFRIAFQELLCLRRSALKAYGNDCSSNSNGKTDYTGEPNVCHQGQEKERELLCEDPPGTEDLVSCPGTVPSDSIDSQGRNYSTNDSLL

Tests used:
[1] = molecular target: T1, Beta-2 adrenergic receptor (Cavia porcellus, UniProt Q8K4Z4); assay: Agonist activity at adrenergic beta2 receptor in Hartley guinea pig tracheal ring assessed as bronchorelaxation activity against histamine-induced contraction; set-up: species or system Trachea
[2] = molecular target: T1, Beta-2 adrenergic receptor; assay: Agonist activity at adrenergic beta2 receptor in Hartley guinea pig tracheal ring at basal tone assessed as bronchorelaxation activity

## CC(C)(C)NCC(O)c1ccc(O)c(CO)c1 (configuration not stated) [ALBUTEROL]
[1]
  Kd: 245 nM
[2]
  Kd: 110 nM
